Laboratory results from paper PMC8564539.

Assays:
Experiment in all cases: AlphaScreen or HTRF; ALPHA: FLAG-tagged domain mixed with biotin-tagged domain (cell-free translation mixtures), streptavidin donor beads, anti-DYKDDDDK antibody with protein A acceptor beads; 100 mM Tris-HCl pH 8.0, 0.01% Tween 20, 1 mg/mL BSA; 25 °C, 24 h; median of duplicate reactions
[1] = biological target: CASP10_DED1-DED2 (human) (UniProt Q92851)
[2] = biological target: CASP8_DED2 (human) (UniProt Q14790)
[3] = biological target: CASP8_DED1-DED2 (human) (UniProt Q14790)
[4] = biological target: FADD_DED-DD (human) (UniProt Q13158)
[5] = biological target: FADD_DED (human) (UniProt Q13158)

- ALPHA signal (RLU) [1]: 24600 RLU
- ALPHA signal (RLU) [2]: 5340 RLU
- ALPHA signal (RLU) [3]: 4090 RLU
- ALPHA signal (RLU) [4]: 14100 RLU
- ALPHA signal (RLU) [5]: 2850 RLU
Substance: CFLAR_DED1-DED2 (from UniProt O15519 1-170) (domain or fragment)
